# Experimental data taken from paper PMC6467748.
# Chains of the proteins cited; added tags and fusions are not shown. Residues count along the entry.
# UniProt P13590, 20-711: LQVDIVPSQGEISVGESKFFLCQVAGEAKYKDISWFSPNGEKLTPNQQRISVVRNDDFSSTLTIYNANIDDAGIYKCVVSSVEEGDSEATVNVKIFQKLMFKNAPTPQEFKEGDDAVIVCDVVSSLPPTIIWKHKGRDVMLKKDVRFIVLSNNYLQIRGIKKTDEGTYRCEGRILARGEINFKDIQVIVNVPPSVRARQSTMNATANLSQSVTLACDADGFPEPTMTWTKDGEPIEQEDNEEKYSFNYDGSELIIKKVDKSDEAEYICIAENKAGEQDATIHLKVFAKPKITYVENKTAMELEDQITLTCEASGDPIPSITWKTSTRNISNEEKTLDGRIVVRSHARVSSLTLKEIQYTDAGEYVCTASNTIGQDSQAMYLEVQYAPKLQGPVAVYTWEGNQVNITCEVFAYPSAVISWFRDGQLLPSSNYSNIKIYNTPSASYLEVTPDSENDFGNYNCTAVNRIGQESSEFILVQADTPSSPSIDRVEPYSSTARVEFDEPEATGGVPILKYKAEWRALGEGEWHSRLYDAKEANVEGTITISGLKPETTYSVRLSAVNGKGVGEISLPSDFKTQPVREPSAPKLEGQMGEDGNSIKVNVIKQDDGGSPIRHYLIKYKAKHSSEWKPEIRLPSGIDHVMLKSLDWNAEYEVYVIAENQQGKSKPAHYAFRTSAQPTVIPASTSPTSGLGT
# Molecular target: chimeric human IgG1 mAb ch735 (mouse | human)
# Assay: SPR
substance,measurement,value
chicken brain-derived polysialylated neural cell adhesion molecule (NCAM) (from UniProt P13590 20-711) (natural protein),Kd,4.79 nM
